Test results reported in patent US7399746B2, “Agents for wound healing” (McGill University, priority 2004, dated 2008).

Columns and labels:
[1] = tested on: LLC-PK1 cells, a porcine kidney epithelial cell line; assay: in vitro wound healing, monolayer of kidney epithelial cells; format: cell-based; settings: FIG. 1A
Description: (§1) Wound healing was measured using an art-established monolayer cell culture method (Nwomeh, et al. (1998) supra). Cells to be studied were plated in 48-well tissue culture plates at a cell density appropriate for obtaining confluent monolayers after one day in culture. Circular wounds were made in the center of the wells by placing a siliconized 200 μL tip into the well and lifting the cells from the plastic by applying suction. The successful creation of wounds was analysed using a phase contrast microscope. Cells were subsequently treated with control media or media containing the factors to be tested. The size of the wounds was immediately recorded for each well. […] After one or two days in culture (depending on the cells studied), the size of the wounds was measured again. Wound dimensions were evaluated with a Leica MZFL11 stereo microscope. Computer images of the wounds were recorded with imaging software and contours of each wound before and after treatment were traced manually. Collections of contours for all wounds were converted to BMP files and quantitated using the Band-Leader program. The results were expressed as % reduction of wounds taking as 100% the reduction obtained in control cell cultures. […] In these experiments, wound closure was being analysed, independent of the mechanism involved. […]

[2] = tested on: primary human skin fibroblasts; assay: in vitro wound healing, monolayer of skin fibroblasts; format: cell-based; settings: FIG. 1B
Description: as §1

human skin keratinocytes = assay: in vitro wound healing, monolayer of skin keratinocytes; format: cell-based; settings: FIG. 1C
Description: as §1

[3] = tested on: human skin fibroblast cultures; assay: cell proliferation, Alamar blue, skin fibroblasts; format: cell-based; settings: two days, FIG. 2B
Description: The effects of IGF-API, API and C26 on cell proliferation were also evaluated using the art-established Alamar blue technique developed for hematopoietic cells or endothelial cells (DiFalco, et al. (1997) Biochem. J. 326:407-13; DiFalco & Congote (2002) Cytokine 18 (1):51-60; Sandoval, et al. (2002) supra). Five thousand cells per well were plated in 96-well plates and grown over night in complete cell culture medium. The cells were subsequently starved for one day in serum-free medium supplemented with 5 μg/mL bovine transferrin and 200 μg/mL fatty-acid free, tissue culture-tested, bovine serum albumin and incubated for two days in the presence of the API derivatives indicated. For experiments with the hepatoma cell line, Hep G2, only 3000 cells were plated per well.

[4] = tested on: skin wounds of normal C57BL/6 mice; assay: in vivo skin wound healing, normal mice; settings: normal mouse, 100 nM in PBS, first 5 days after wounding, topical 50 μL, FIG. 4A
From the text: (§2) The methodology for the preclinical studies was based on procedures described in similar experiments by Brown, et al. ((1994) J. Surg. Res. 56(6):562-70). Normal adult female C57BL/6 mice or C57BL/KsJ-db/db genetically diabetic mice (Jackson Laboratories, West Grove, Pa.) were anaesthetized with Ketamine-Xylazine-Acetopromazine. The backs were shaved, washed with povidone-iodine solution and wiped with sterile water. Two 1-cm^2 full thickness wounds were created on the back. After wounding, Tincture Benzoin compound was applied to the edges of the wounds. A semipermeable, transparent polyurethane dressing (OPSITE®) was placed over the wound and the edges were sealed with the benzoin. At the time of wounding, the healing factors were applied once daily for the first 5 days or at days 0, 1, 2, 3 and 5. IGF-API was dissolved in sterile phosphate-buffered saline (PBS) at the doses indicated in FIG. 4 and 50 μL of the solutions were applied with a 30-gauge needle beneath the OPSITE®) dressing. The liquid was allowed to spread over the wound. The control wound received 50 μL of PBS alone. The edges of epithelial migration were serially traced onto household plastic wrap at days 0, 3, 7, 9 or 11 and the areas of the traced wounds were scanned and measured with an imaging program (measurements of wound closure).

[5] = tested on: skin wounds of C57BL/KsJ-db/db genetically diabetic mice; assay: in vivo skin wound healing, diabetic mice; settings: diabetic mouse, 1 μM at days 0, 1, 2, 3 and 5 after wounding, topical 50 μL, FIG. 4B
From the text: as §2

B1: IGF-API: IGF I-API fusion protein (SEQ ID NO:3): human IGF-I, poly-glycine linker, API mutated at positions 351 and 358, hexa-histidine tag (protein)
chain: [sequence of about 80 residues not given]GGGSGGGGGGGGGHGLAEDPQGDAAQKTDTSHHDQDHPTFNKITPNLAEFAFSLYRQLAHQSNSTNIFFSPVSIATAFAMLSLGTKADTHDEILEGLNFNLTEIPEAQIHEGFQELLRTLNQPDSQLQLTTGNGLFLSEGLKLVDKFLEDVKKLYHSEAFTVNFGDTEEAKKQINDYVEKGTQGKIVDLVKELDRDTVFALVNYIFFKGKWERPFEVKDTEEEDFHVDQVTTVKVPMMKRLGMFNIQHCKKLSSWVLLMKYLGNATAIFFLPDEGKLQHLENELTHDIITKFLENEDRRSASLHLPKLSITGTYDLKSVLGQLGITKVFSNGADLSGVTEEAPLKLSKAVHKAVLTIDEKGTEAAGAEFLEAIPLSIPPEVKFNKPFVFLMIEQNTKSPLFMGKVVNPTQKEHAHHHHHH
modifications: Synthetic fusion protein
- concentration at which effective/active in wound reduction [1]: lower than 0.1 nM
- wound reduction (wound healing) ([1]; serum-free medium, one day): most effective compound
- concentration with significant effect on wound reduction [2]: 8 to 20 nM
- wound reduction ([2]; serum-free medium, two days): most active compound
- concentration with effect on wound reduction (human skin keratinocytes): lower than 0.1 nM
- wound reduction (human skin keratinocytes): most active compound
- cell proliferation [3]: significance increase in cell proliferation
- wound healing (% closure of the wounds) [4]: improvement in wound healing
- wound healing (% closure of the wounds) [5]: improvement in wound healing
